US4757049A, “Process for using endogenous enkephalins and endorphins to stimulate the immune system of patients with aids” (TNI Pharmaceuticals, Inc., priority 1986, dated 1988)
Values joined by “and” are separate entries in the source; they are usually repeats but may differ in a detail not shown here. Equal values may be shown once. Read-outs that look alike come from different tables or passages of the source.

Conditions: for Blood Pressure: infusion from 9:00

For `CSCC[C@H](NC(=O)[C@H](Cc1ccccc1)NC(=O)CNC(=O)CNC(=O)[C@@H](N)Cc1ccc(O)cc1)C(=O)O` [Methionine-Enkephalin, Tyr--Gly--Gly--Phe--Met], the “Blood Pressure” value (Volunteer 1, 0.010 mg/kg, readings in block order: 9:10, 9:20, 9:30, 10 a.m., 11 a.m., 1 p.m., 4 p.m., Second Day 8:55, 0.01 mg/kg) was 100/70 and 110/70, the Neurological evaluation (Volunteer 1, 10 micrograms/kg) was “slight nystagmus 1 to 2 hours after infusion” and the “Blood Pressure” value (Volunteer 2, 0.010 mg/kg, readings in block order: 9:10, 9:20, 9:30, 10:00, 11:00, 1 p.m., 4 p.m., Next Day 8:44, 0.01 mg/kg) was 130/80. For the same molecule, the Neurological evaluation (Volunteer 2, 10 micrograms per kilogram) was “slight nystagmus 2 hours after infusion”, the Neurological evaluation (Volunteer 3, 0.001 mg/kg) was “Slight nystagmus” and the “Blood Pressure” value (Volunteer 3, 0.001 mg/kg, readings in block order: 9:10, 9:20, 9:30, 10:00, 11:00, 1 p.m., 4 p.m., Next Day 8:55, 0.001 mg/kg) was 110/80. For the same molecule, the “Blood Pressure” value (Volunteer 4, one microgram per kg, readings in block order: 9:10, 9:20, 9:30, 10:00, 11:00, 1:00 p.m., 4:00, Next Day 8:55 a.m.) was 110/80 and 100/80.
